Columns and labels:
[1] = target: T1, RAC-alpha serine/threonine-protein kinase (Homo sapiens, UniProt P31749)
[2] = target: T1, RAC-alpha serine/threonine-protein kinase; remark: listed apart in the source

By UniProt entry, the sequences of proteins in these tests, tags left out. Where a name states a change or a piece, a line headed by the entry shows the natural chain unless it says otherwise.
UniProt P31749: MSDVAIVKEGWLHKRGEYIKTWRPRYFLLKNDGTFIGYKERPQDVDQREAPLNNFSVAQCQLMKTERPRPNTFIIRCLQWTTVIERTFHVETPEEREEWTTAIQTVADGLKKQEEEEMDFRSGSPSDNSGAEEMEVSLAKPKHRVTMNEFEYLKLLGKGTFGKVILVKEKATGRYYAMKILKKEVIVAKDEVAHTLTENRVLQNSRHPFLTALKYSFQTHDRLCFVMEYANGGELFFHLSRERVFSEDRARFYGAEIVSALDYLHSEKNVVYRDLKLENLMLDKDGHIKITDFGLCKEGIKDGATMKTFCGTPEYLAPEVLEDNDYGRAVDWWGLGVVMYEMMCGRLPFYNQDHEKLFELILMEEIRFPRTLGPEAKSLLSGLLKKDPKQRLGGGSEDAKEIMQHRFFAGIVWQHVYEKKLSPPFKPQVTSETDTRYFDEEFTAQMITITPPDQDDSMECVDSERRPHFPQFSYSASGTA

Compound | IC50 [1] | IC50 [2]
C[C@@H]1C[C@@H](O)c2ncnc(N3CCN(C(=O)[C@H](CNCC4CC4)c4ccc(C(F)(F)F)c(F)c4)CC3)c21 | 65 nM | 3 nM
C[C@@H]1C[C@@H](O)c2ncnc(N3CCN(C(=O)[C@H](CNC(C)(C)C)c4ccc(C(F)(F)F)c(F)c4)CC3)c21 | 92 nM | 3 nM
C[C@@H]1C[C@@H](O)c2ncnc(N3CCN(C(=O)[C@H](CNC(C)(C)CO)c4ccc(C(F)(F)F)c(F)c4)CC3)c21 | 47 nM | 6 nM

More lines, now with the values ahead:

IC50 [1] | IC50 [2] | Compound
184 nM | 5 nM | C[C@@H]1C[C@@H](O)c2ncnc(N3CCN(C(=O)[C@H](CNC4CCOCC4)c4ccc(Cl)cc4)CC3)c21
179 nM | 5 nM | C[C@@H]1C[C@@H](O)c2ncnc(N3CCN(C(=O)[C@H](CNCC4CC4)c4ccc(Cl)cc4)CC3)c21
152 nM | 4 nM | CC(C)NC[C@@H](C(=O)N1CCN(c2ncnc3c2[C@H](C)C[C@H]3F)CC1)c1ccc(Cl)cc1
901 nM | 12 nM | CC(C)NC[C@@H](C(=O)N1CCN(c2ncnc3c2[C@H](C)C[C@@H]3F)CC1)c1ccc(Cl)cc1
